A word on the IC50: it is the point on the concentration scale where inhibition reaches its midpoint. A higher IC50 goes with weaker potency in that assay.

Chains of the proteins cited; added tags and fusions are not shown.
UniProt P19643, whole entry: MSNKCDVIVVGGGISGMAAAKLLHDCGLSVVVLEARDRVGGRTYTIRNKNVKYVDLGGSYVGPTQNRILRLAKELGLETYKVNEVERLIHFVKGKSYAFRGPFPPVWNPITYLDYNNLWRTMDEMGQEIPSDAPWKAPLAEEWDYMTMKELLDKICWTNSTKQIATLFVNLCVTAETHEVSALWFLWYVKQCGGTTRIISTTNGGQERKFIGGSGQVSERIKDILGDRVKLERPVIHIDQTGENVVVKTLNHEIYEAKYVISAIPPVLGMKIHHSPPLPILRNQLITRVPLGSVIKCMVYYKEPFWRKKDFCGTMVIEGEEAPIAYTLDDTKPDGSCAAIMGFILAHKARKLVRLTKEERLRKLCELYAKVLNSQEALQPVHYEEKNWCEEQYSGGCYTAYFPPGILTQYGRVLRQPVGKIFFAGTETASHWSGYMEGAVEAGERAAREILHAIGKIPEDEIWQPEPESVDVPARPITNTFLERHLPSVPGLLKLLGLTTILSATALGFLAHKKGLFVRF
UniProt Q8BW75, whole entry: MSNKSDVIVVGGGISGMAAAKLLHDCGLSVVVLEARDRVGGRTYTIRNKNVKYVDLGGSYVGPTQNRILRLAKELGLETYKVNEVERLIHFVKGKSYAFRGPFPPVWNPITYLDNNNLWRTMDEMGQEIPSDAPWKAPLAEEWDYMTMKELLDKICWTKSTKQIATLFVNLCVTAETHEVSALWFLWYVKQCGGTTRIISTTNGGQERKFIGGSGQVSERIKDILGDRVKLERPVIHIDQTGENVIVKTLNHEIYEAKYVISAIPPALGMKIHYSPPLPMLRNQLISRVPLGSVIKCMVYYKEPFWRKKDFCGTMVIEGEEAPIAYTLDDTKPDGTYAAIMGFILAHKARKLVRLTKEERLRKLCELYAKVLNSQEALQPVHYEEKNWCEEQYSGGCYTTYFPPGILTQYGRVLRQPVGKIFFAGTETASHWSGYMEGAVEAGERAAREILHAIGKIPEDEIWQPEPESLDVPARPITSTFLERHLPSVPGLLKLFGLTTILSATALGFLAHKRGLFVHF

The source of these data is patent US5508311A, “Aliphatic propargylamines as selective MAO-B inhibitors and as neuroprotective agents” (University of Saskatchewan, priority 1993, dated 1996).

Test [1] addresses MAO-B (Rattus norvegicus, UniProt P19643). The experiment in a line: biochemical.
The target of test [2] is MAO-B (Mus musculus, UniProt Q8BW75). The experiment in a line: MAO-B activity in the mouse brain after oral administration (substrate PE).

Take `C#CCN(C)C(C)CC.Cl.O=C(O)C(=O)O` (racemic) [Example 2-BuMP]: on MAO-B [1], the concentration for half-maximal inhibition (IC50) stood at 1000 nM. For the same compound, on MAO-B [2] (mouse, po, 2 h, read-out: Inhibition of MAO-B activity, dose response (ID50)), the ED50 came to 5 mg/kg. Further, the “Relative activity PE” value at MAO-B [2] (oral 10 mg/Kg, 2 hours, PE (1.9 × 10^-5 M), mean ± standard error, saline = 100) was 28 ± 2%.
